Values of other authors as cited in patent US11040119B2, “Compositions and methods for assessing neuromuscular function” (Biogen MA Inc., priority 2013, dated 2021).

How the values were obtained:
[1] = prepared radiopharmaceutical; cited from earlier work
[2] = in vivo; cited from earlier work

Question: With ^99mTc tetrofosmin as the substance, how does the stability [1] read?
Answer: Its stability is 6 h.

Question: And the biological half-life [2]?
Answer: The biological half-life was “long”.

Question: And the extraction efficiency [2]?
Answer: The extraction efficiency was “high”.
